Values quoted from earlier work, collected in article PMC12503912 (Chemmedchem, 2025).

Conditions: metabolites of dolastatin 15, cemadotin and tasidotin; cited from earlier work

In the case of NMe2Val-Val-NMe-Val-Pro-Pro [Peptide 1], the “cytotoxic / antimitotic activity of metabolite” value is listed as “even higher than that of tasidotin”.
